Ab-14 heavy chain CDR variants: yeast mating affinities

Antigen: PDVDLGDISGINAS, a 14-residue peptide of the SARS-CoV-2 spike HR2 region.

The variants keep the light chain, the linker and the frameworks of Ab-14 (scFv order VH, a (GGGGS)3 linker, VL).
VH: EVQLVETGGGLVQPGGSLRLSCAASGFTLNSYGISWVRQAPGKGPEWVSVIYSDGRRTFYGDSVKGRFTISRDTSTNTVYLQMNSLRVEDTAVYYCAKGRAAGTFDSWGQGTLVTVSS
VL: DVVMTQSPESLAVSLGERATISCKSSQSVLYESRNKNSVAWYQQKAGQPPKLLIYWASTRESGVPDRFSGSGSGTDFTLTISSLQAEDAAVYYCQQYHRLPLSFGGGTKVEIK

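Library AAYL49 holds single substitutions and randomly drawn double and triple substitutions in the CDRs. The scFvs were displayed on barcoded MATa yeast, the peptide on MATalpha yeast. After mating in shaken culture at 30 °C for 16 h, diploids were selected and their barcode pairs sequenced. The ratio of observed to expected reads was calibrated, replicate by replicate, on BCL2-family standards whose Kd was known from biolayer interferometry. The assay was run in three technical replicates.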

The parent's heavy chain CDRs are GFTLNSYGIS, VIYSDGRRTFYGDSVK, GRAAGTFDS; each variant's own CDRs replace them letter for letter.
Affinities are written as log10 Kd with Kd in nM; a lower number is a better binder.
The mean shown is taken over the replicates in which the pair was detected.
Where no diploid with the target was found in that replicate, the entry reads "nd": below detection, most likely a poor binder, though not proof of it.
Parent in this assay: reference entry 0.65, copy in this library 4.11 (one replicate of three).

CDR-H1	CDR-H2	CDR-H3	log10 Kd (nM) by replicate	log10 Kd (nM), mean	control signals
GFTLNSYGIS	VIYSDFRRTFYGDSVK	GRAAGTFDS	nd / nd / 4.72	4.72	1 of 9 (4.25)
GFTLNSYGIS	VIYSPGRRTFYGDSLK	GREAGTFDS	nd / nd / nd	nd	1 of 9 (4.59)
GFTLNSMGIS	VIYSDGRRTFYGDSVK	GRAAGTFDS	1.48 / 2.09 / 1.94	1.84	0 of 9
GFPLNSYGIS	VIYSDGWRTFYGDSVK	GRAAGTKDS	2.11 / 2.11 / 2.10	2.11	5 of 9 (4.19)
GFTLNSYAIS	VIYSDGRRTFYGDSRK	GRAAGHFDS	nd / nd / nd	nd	0 of 9
GFTLKSYGIS	VIYSDGRRGIYGDSVK	GRAAGTFDS	4.89 / 4.09 / nd	4.49	5 of 9 (5.07)
GATLNSYGIS	VIYSHGRRTFYGNSVK	GRAAGTFDS	6.06 / nd / nd	6.06	5 of 9 (4.22)
GFQLNSYGIS	VIYSDGRRTFYPDSVK	GRAAGTFDS	2.47 / 2.20 / 2.35	2.34	3 of 9 (5.19)
GFTLNSYKIS	VIYSDGRRTFYGDSVI	GLAAGTFDS	4.73 / 4.43 / 4.72	4.62	3 of 9 (4.39)
GFTLNSYGIS	VIGSDGYRTFYGDSVK	GRAAGTGDS	nd / nd / nd	nd	0 of 9
GFTLNSYGIS	RIYSDGPRTFYGDSVK	GRIAGTFDS	nd / nd / nd	nd	2 of 9 (3.70)
GFTANSYGIS	VIYSDGRRTFYDDSVI	GRAAGTFDS	nd / nd / nd	nd	2 of 9 (3.33)
GFTLNSYGIS	VIYSDGARTFYGDLVK	GRAAGTFDS	3.21 / 2.96 / 2.96	3.04	2 of 9 (4.47)
GFTLNSYGIC	VIYSDGWRTFYGDSVK	GRCAGTFDS	nd / 2.58 / nd	2.58	3 of 9 (4.14)
GFTLNSYGIS	VIYSDGRRTFYGWPVK	GRAAGTFDP	nd / nd / nd	nd	2 of 9 (4.87)
GFTLFSYGIS	VIYSDGRRTFYGDSVK	GRAAGFLDS	nd / nd / nd	nd	0 of 9
GFTLTSYGIS	VIYSDGRRTFTGDSVG	GRAAGTFDS	nd / 4.62 / nd	4.62	3 of 9 (3.94)
GFTLQSYGIS	VIYSDGRRTFEGDSVK	GRAAGTQDS	nd / 2.92 / nd	2.92	4 of 9 (4.32)
GFTLNSYGIS	VIYSDGRRTFYGDSHK	GRAMGTFDN	4.02 / nd / nd	4.02	2 of 9 (4.20)
GFTLNSYGIS	VIYSDGRRTFYGDSVK	GRMAGEDDS	nd / nd / nd	nd	0 of 9
MFTLNSYGIS	FIYSDGRRTFYGDSVK	GRAAGTFHS	nd / nd / nd	nd	1 of 9 (3.68)
GKTLNSYGIS	VIYSDGRRTFYMDSVK	GRAAGSFDS	5.48 / nd / nd	5.48	1 of 9 (3.43)
GSTLNSYGIS	VIYSDGRRQFYGDSVK	GRAAGTFDS	3.78 / 3.17 / 3.30	3.42	1 of 9 (3.33)
GFTLNSYGIS	LIYSDGRRTFYGDSVA	GRAAVTFDS	3.46 / 4.45 / nd	3.96	2 of 9 (3.72)
GFTLNSYGIS	VIYSDGRSTFYGDSVK	GRAAETFDS	nd / nd / 3.02	3.02	0 of 9
GFTLNSYGIS	VIFDDGRRTFYMDSVK	GRAAGTFDS	5.91 / nd / 4.82	5.37	1 of 9 (4.21)
GFTLNSYGIS	DIYSDGRRFFYGDSVK	GRAAGTFDS	nd / nd / nd	nd	1 of 9 (3.28)
HFTLNSYGIS	VWYSDGRRTFYGDQVK	GRAAGTFDS	nd / nd / nd	nd	0 of 9
GLTLNSYGIS	VIYSDGRRTGYGDSAK	GRAAGTFDS	3.82 / nd / 3.82	3.82	3 of 9 (3.68)
GFTLNSYGIS	VIYSDGRRRFYGDSVK	GRGAGTFKS	2.91 / nd / nd	2.91	0 of 9
GFKLNSYGIS	VIYSDGRRTFYGDSIK	GRAAGDFDS	3.16 / 2.15 / 3.61	2.98	1 of 9 (4.11)
GFTLNSYGIS	VIYSDGRWTFRGDPVK	GRAAGTFDS	nd / 3.56 / 4.39	3.98	2 of 9 (4.11)
GFTLNSYGQS	VIYSDGRRTFYWDSVK	GRAAGIFDS	3.82 / 4.02 / nd	3.92	4 of 9 (4.78)
GFTLNSYGIS	VIYSDGRRTLYGGSVK	DRAAGTFDS	nd / nd / nd	nd	1 of 9 (3.10)
GFTLNSYGIS	VIYSDGRRTFYKLSVK	GIAAGTFDS	nd / nd / nd	nd	0 of 9
GFTMNSYGIS	VIYSDGRRTFYGDSVK	GAAAGTFDT	2.80 / 3.76 / 3.88	3.48	0 of 9
GFTLGSYGIS	VIYFDGRRTFYGDSVK	GRAAGTFDS	2.34 / 1.97 / 2.11	2.14	0 of 9
GFTLNSYKGC	VIYSDGRRTFYGDSVK	GRAAGTFDS	nd / 2.08 / 4.71	3.39	0 of 9
GFTLNSYGIS	SIYSDGRRTFYGDMVK	GRNAGTFDS	nd / nd / nd	nd	0 of 9
GFKLNSYGIS	VIYSDGRRQFYGDSGK	GRAAGTFDS	nd / 2.16 / nd	2.16	1 of 9 (3.35)
GFTLNSYGIS	VIYSDGRRTFYGFSVK	GFRAGTFDS	nd / nd / nd	nd	0 of 9
GFTLNSYGIS	GIYSYGRRTFYGDSVK	GRAAGTFDS	nd / nd / nd	nd	0 of 9
GFTLNVYGIS	VIYSDGRRTFYGDSDK	GRAAGTRDS	4.42 / 4.01 / nd	4.22	4 of 9 (4.60)
GFTLNSYRIS	VIYSDGRRTFYGDSVK	GPAAGTFDS	nd / nd / nd	nd	0 of 9

The 3 strongest on average among those seen in every replicate, once more:

| CDR-H1 | CDR-H2 | CDR-H3 | log10 Kd (nM) by replicate | log10 Kd (nM), mean | control signals |
|---|---|---|---|---|---|
| GFTLNSMGIS | VIYSDGRRTFYGDSVK | GRAAGTFDS | 1.48 / 2.09 / 1.94 | 1.84 | 0 of 9 |
| GFPLNSYGIS | VIYSDGWRTFYGDSVK | GRAAGTKDS | 2.11 / 2.11 / 2.10 | 2.11 | 5 of 9 (4.19) |
| GFTLGSYGIS | VIYFDGRRTFYGDSVK | GRAAGTFDS | 2.34 / 1.97 / 2.11 | 2.14 | 0 of 9 |

Three control strains display no target. For library AAYL49, 15% of the pairings with them gave a signal, with a median of 4.06 and one signal in twenty below 2.83, so weak values seen in few replicates may be background. Also given: how often the same scFv was detected with the empty control strains, with their mean in brackets.

Reference: Engelhart et al. 2022, doi:10.1038/s41597-022-01779-4. File: FLAb, binding data.